These results are taken from patent US20260035382A1, “COMPOUNDS AS SUMO ACTIVATING ENZYME INHIBITORS” (WIGEN BIOMEDICINE TECHNOLOGY (SHANGHAI) CO., LTD., priority 2022, published 2026).

By UniProt entry, the sequences of proteins in these tests, tags left out.
UniProt Q9UBT2, whole entry: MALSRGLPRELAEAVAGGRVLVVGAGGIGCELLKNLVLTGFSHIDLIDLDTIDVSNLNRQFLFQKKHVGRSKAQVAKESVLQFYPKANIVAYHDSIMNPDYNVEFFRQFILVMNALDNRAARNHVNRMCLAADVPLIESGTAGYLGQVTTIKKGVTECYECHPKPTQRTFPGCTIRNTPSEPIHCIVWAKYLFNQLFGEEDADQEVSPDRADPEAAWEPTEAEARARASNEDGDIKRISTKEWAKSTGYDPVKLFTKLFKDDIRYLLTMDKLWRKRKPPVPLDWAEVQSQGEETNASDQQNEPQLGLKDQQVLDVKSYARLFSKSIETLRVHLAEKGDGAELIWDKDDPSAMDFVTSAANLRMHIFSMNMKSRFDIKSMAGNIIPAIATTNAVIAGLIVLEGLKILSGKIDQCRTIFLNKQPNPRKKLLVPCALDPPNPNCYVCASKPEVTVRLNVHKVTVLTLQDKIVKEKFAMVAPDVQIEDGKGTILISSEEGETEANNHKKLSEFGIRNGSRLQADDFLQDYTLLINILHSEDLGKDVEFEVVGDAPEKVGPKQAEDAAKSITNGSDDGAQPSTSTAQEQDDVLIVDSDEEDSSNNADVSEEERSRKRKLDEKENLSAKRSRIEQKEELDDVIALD
UniProt Q9UBE0, whole entry partner: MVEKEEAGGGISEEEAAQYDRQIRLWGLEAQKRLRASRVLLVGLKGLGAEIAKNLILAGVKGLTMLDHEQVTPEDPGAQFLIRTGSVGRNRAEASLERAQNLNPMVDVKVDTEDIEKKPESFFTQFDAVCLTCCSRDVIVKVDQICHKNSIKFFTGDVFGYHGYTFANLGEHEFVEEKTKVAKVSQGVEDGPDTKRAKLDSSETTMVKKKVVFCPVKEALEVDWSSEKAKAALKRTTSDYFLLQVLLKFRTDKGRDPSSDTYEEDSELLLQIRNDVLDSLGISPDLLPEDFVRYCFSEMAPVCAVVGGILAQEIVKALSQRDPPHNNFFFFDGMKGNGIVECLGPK

The assay has as its target SAE (Homo sapiens (Human), UniProt Q9UBT2). Description: In vitro inhibitory activity assay against SAE (SUMO-2/3 immunofluorescence in HCT116 cells). Particulars: read-out: SUMO IF IC50, 6 h incubation, class symbols. As for the experimental part:
HCT116 cells were seeded into a 96-well black transparent bottom plate at about 20000/well with 90 μL per well. The cells were incubated at 37° C. overnight for 24 h. The test compounds were 10-fold diluted to give a final concentration, and 10 μL of the diluted compounds was added to each well of the cell culture plate. The mixture was incubated at 37° C. for 6 h. The cells were then washed gently, the culture medium was discarded, and the cells were washed once with 200 μL of 0.1% o PBST. 50 μL of 4% PFA was added to each well, and the cells were immobilized at room temperature for 20 min, and then washed with PBS 2-3 times. 50 μL of 0.2% o Triton X-100 was added to each well, and the cells were left to stand at room temperature for 15 min and washed with 0.1% PBST 3 times. 100 uL of 3% BSA (0.6 g BSA+20 mL PBS) was added to each well, and the mixture was blocked at 37° C. for 30 min. After the blocking was completed, the liquid was removed and a primary antibody (SUMO-2/3 (181H8) Rabbit mAb, 1:400 dilution) was prepared with […]. 30 μL of the diluted primary antibody was added to each well, and the mixture was incubated at 4° C. overnight. The cells were washed 3 times with 200 μL of 0.1% o PBST. […] The fluorescence signal of the sample was detected and compared to the DMSO group, and the inhibition rate and IC50 were calculated.

Structures are written as SMILES.

Regarding `NS(=O)(=O)OC[C@H]1C[C@@H](Nc2ncncc2C(=O)c2cc3c(s2)CN(C2CC2)CC32OCCc3ccc(F)cc32)C[C@@H]1O` (some centres unmarked), the IC50 was in the range of 50 to 200 nM.

On to `NS(=O)(=O)OC[C@H]1C[C@@H](Nc2ncncc2C(=O)c2cc3c(s2)CCC[C@@]32NCCc3ccc(Cl)nc32)C[C@@H]1O`, for which the IC50 was above 200 nM.
